From PubChem BioAssay AID504357 (The Scripps Research Institute Molecular Screening Center, 2011) come the findings set out here.

Sequences of proteins named here, by UniProt entry; tags and fusion partners are left off.
UniProt P35372, whole entry, looked up: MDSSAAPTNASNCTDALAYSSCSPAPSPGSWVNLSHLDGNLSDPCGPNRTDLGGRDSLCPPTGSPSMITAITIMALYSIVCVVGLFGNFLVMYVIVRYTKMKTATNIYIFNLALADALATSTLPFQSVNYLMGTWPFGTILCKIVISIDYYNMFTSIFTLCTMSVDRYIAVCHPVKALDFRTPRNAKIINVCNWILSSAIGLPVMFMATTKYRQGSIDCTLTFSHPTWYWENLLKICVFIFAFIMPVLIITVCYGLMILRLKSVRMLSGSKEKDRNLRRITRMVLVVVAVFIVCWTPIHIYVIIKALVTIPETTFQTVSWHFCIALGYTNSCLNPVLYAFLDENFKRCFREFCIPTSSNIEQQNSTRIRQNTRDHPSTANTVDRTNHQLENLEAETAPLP
UniProt P41143, whole entry, looked up: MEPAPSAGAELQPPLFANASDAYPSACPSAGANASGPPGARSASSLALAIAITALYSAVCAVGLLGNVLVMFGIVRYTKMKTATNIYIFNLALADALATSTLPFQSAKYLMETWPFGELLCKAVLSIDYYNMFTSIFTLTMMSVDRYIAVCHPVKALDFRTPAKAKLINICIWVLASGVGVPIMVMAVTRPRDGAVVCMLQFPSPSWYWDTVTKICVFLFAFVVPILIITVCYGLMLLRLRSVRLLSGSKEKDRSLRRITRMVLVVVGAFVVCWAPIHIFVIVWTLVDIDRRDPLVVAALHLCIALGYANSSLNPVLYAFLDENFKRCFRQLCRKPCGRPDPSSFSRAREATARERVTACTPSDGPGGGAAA

The entries are a selection whose mix differs from that of the whole data set. Calls of active or inactive are those of the source. Cut-off read from the data, not from the text of the source: active = inhibition above about 22% (passing the limit was not always enough); inactive = the rest.

The target in this assay is Mu-type opioid receptor (Homo sapiens) + Delta-type opioid receptor (Homo sapiens) (UniProt P35372+P41143). Briefly: OPRM1-OPRD1 heterodimer inverse agonism – cell-based, luminescence, primary screen (AID 504357).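 Note: 0% = cells with DMSO and 100% = wells without cells with DMSO.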 Particulars: cell-based MOR-DOR heterodimer luminescence, at 9.3 µM, stronger effect = higher value.
Regarding `CCOP(=O)(Nc1ccc(C)cn1)OCC`, the inhibition is inactive: 11.3%. For `CSc1nc(N)nc2c1ncn2CC(=O)NCCNc1ccc([N+](=O)[O-])cn1`, the inhibition was inactive: 14.9%. Turning to `CNC(=O)Cn1c(=O)n(C)c2ccccc21`, the inhibition was inactive: 12.2%. The figure for `CC1c2nc3ccccc3n2C(CC(=O)NC2CC2)C(=O)N1Cc1ccccc1` (stereo not drawn) is inactive: 16.7%; for `CC(C)C[C@H](NC(=O)N1CCn2c1nc1ccccc12)C(=O)N[C@@H](C(=O)O)c1ccccc1` it is inactive: 11.2%; for `CN(C)C1(c2nnnn2CCOC(=O)Nc2ccc(Cl)cc2)CCCCC1` it is inactive: -23.7%. As to `CC(C)NC(=O)CSc1nc2ccccc2n1CC(=O)N1CCc2ccccc21`, the inhibition was inactive: 5.74%. The figure for `CC(c1ccccc1)N1CCn2c(nc3cc(NC(=O)NC4CCCCC4)ccc32)C1` (stereo not drawn) is inactive: 16.5%; for `Cc1ccc(-c2nc(N(C)C3CCN(C)CC3)c3ccccc3n2)cc1` it is inactive: 11.4%; for `CCOc1ccc(C(=O)N2CCn3c2nc2ccccc23)cc1` it is inactive: 17.1%. In the case of `CCOC(=O)c1ccc(NC(=O)Cn2cnc3cc(C)c(C)cc32)cc1` it was inactive: 7.54%; in that of `CCOC(=O)Cc1csc(NC(=O)Cn2cnc3c2c(=O)n(C)c(=O)n3C)n1`, inactive: 12.4%; in that of `C[C@H](O)[C@@H]1C(=O)N2CCc3ccc(-c4cccc(F)c4)cc3[C@@H]2C[C@@H]1N(C)C(=O)C(C)(C)C`, inactive: -5.53%. Consider `CCN(CC)CCn1c(NC(=O)c2ccc(C)cc2)nc2ccccc21`, for which the inhibition is inactive: -12.6%.

Take `O=C(Cn1c(COc2ccc(Cl)cc2)nc2ccccc21)NCC(F)(F)F`: the inhibition was inactive: 14.4%. The figure for `Cc1cccc(N2CCN(C(=O)Cn3cnc4c3c(=O)n(C)c(=O)n4C)CC2)c1C` is inactive: 11.5%.

For `COC(=O)[C@H](CCSC)NC(=O)Cn1cnc2c(OCc3ccccc3)ncnc21`, the inhibition was inactive: 2.37%. `O=C(Cn1c(CO)nc2ccccc21)NCc1ccc2c(c1)OCO2`: the inhibition was inactive: 2.12%. Consider `CCC(=O)Nc1ccc2c(c1)nc1n2CCN(C2CCCCC2)C1`, for which the inhibition is inactive: -3.37%. The figure for `O=C(Nc1nc2ccccc2n1CCN1CCOCC1)c1ccc(COc2ccccc2Br)o1` is inactive: -4.84%; for `CC(C)/C=N\N=C(\N)N[N+](=O)[O-]` it is inactive: -1.3%; for `COc1ccc(CCNC(=O)CCCCCNC(=O)N2CCn3c2nc2ccccc23)cc1OC` it is inactive: 18.3%.

Consider `CN(C(=O)Cc1ccc(Cl)c(Cl)c1)[C@@H]1CCCC[C@H]1N1CCCC1`, for which the inhibition is inactive: -5.38%.

On to `O=C(Cn1cnc2c(OCc3ccccc3)ncnc21)NCCc1c[nH]c2ccccc12`, for which the inhibition was inactive: 3.19%. Turning to `CC(C)CN(C(=O)Cn1c(C(F)(F)F)nc2ccccc21)c1c(N)n(Cc2ccccc2)c(=O)[nH]c1=O`, the inhibition is inactive: 4.71%. The figure for `COCCN(C(=O)Cn1c(C(F)(F)F)nc2ccccc21)c1c(N)n(Cc2ccccc2)c(=O)[nH]c1=O` is inactive: 2.07%; for `Brc1ccc(/C=N/c2nc3ccccc3n2CCN2CCOCC2)cc1` it is inactive: 3.6%. In the case of `c1coc(CNc2nc3ccccc3n2CCN2CCOCC2)c1` it was inactive: -3.87%; in that of `CC1(CBr)Cn2c(nc3ccccc3c2=O)S1` (stereo not drawn), inactive: 11.1%. With `Fc1ccc(Cn2nnnc2CN2CCC(n3nnc4cc(C(F)(F)F)ccc43)CC2)cc1`, the inhibition was inactive: -0.79%. In the case of `CN(C)CCCNC(=S)N1CCn2c(nc3ccccc32)C1`, the inhibition was inactive: 15%.

On to `CC1CN(C(=O)Cn2c(C(F)(F)F)nc3ccccc32)CC(C)O1` (stereo not drawn), for which the inhibition was inactive: -5.51%. In the case of `O=C(CCCCCNC(=O)N1CCn2c1nc1ccccc12)N[C@H](Cc1ccccc1)C(=O)O` it was inactive: 16.5%; in that of `CC(CNC(=O)Cn1cnc2c(OCc3ccccc3)ncnc21)c1ccccc1` (stereo not drawn), inactive: 16.4%. In the case of `Cn1c(=O)n(Cc2ccccc2F)c(=O)c2c1nc1n2CCN1Cc1ccco1` it was inactive: 12.9%; in that of `NC(=O)CC(NC(=O)Cc1ccc(Cl)cc1)c1ccc(NC2CCN(Cc3ccccc3)CC2)c([N+](=O)[O-])c1` (stereo not drawn), inactive: 6.29%. The figure for `CCc1cccc(NC(=O)Cn2c3[n+](c4ccc(C(F)(F)F)cc42)CCCCC3)c1` is inactive: 14.6%; for `Cc1nc2ccccc2n1CC(=O)N/N=C\C=C\c1ccccc1` it is inactive: 10.2%. Consider `CS(=O)(=O)N1CCn2c1nc1ccccc12`, for which the inhibition is inactive: 0.53%. For `CCN(CC)CCn1c(NCc2ccco2)nc2ccccc21`, the inhibition was inactive: 3.89%. `CC(C)C[C@H](NC(=O)N1CCn2c1nc1ccccc12)C(=O)NCc1ccc2c(c1)OCO2`: the inhibition is inactive: 2.99%.

Turning to `Cc1ccc(OCC(O)Cn2c(=N)n(CCN3CCCCC3)c3ccccc32)cc1` (stereo not drawn), the inhibition is inactive: -4.43%.

Regarding `N=c1n(CCN2CCCCC2)c2ccccc2n1CC(O)c1cccc(Br)c1` (stereo not drawn), the inhibition was inactive: -15.4%. Take `COC(=O)[C@H](Cc1ccccc1)NC(=O)Cn1cnc2c(OCc3ccccc3)ncnc21`: the inhibition is inactive: 7.91%.

Turning to `COc1cccc(NC(=S)N2CCn3c(nc4ccccc43)C2)c1`, the inhibition was inactive: 6.32%. In the case of `O=C(CCNC(=O)N1CCn2c1nc1ccccc12)NCc1ccccc1`, the inhibition was inactive: 12.6%. For `Cc1ccc(NC(=O)C2CC(=O)Nc3nc4ccccc4n32)c(C)c1` (stereo not drawn), the inhibition was inactive: 7.2%.

As to `Cc1ccc2c(c1)C1CN(C)CCC1N2C(=O)c1cccc(S(=O)(=O)N2CC(C)CC(C)C2)c1` (stereo not drawn), the inhibition was inactive: -9.42%. For `COc1ccc(N(C(=O)Cn2cnc3ccccc32)C(C(=O)NC2CCCCC2)c2ccccc2)cc1` (stereo not drawn), the inhibition was inactive: 8.97%. `Cn1c(=O)c2ncn(CC(=O)N/N=C/C=C/c3ccccc3)c2n(C)c1=O`: the inhibition is inactive: 14.6%. For `CCN(CC)c1ccc(CNc2nc3ccccc3n2CCN2CCCCC2)cc1`, the inhibition is inactive: -244%.

Consider `COc1ccccc1C(=O)Nc1ccc2c(c1)nc1n2CCN(Cc2ccccc2)C1`, for which the inhibition was inactive: -8.17%.

Consider `COc1ccccc1CNC(=O)COC(=O)C(O)(c1ccccc1)c1ccccc1`, for which the inhibition is inactive: 9.52%.

Turning to `Cn1c(=O)c2c(nc(N3CCCCC3)n2CCNC2=NCCC2)n(C)c1=O`, the inhibition was inactive: 15.1%. The figure for `O=C(Cn1cnc2c(OCc3ccccc3)ncnc21)N[C@H](CO)Cc1cc2ccccc2[nH]1` is inactive: 13.9%. In the case of `Cn1c(=O)c2ncn(CC(=O)NCCOc3ccc(C(C)(C)C)cc3)c2n(C)c1=O`, the inhibition is inactive: 10.1%. On to `O=C(CSc1nc2ccccc2n1CC(=O)NCc1ccccc1)NCc1ccco1`, for which the inhibition is inactive: 12.3%. Turning to `CC(=O)Nc1ccc(NC(=O)C2CC(=O)Nc3nc4ccccc4n32)cc1` (stereo not drawn), the inhibition was inactive: 13%. The figure for `CCN1C(=O)CC(N2CCC(Nc3ccc(OC)cc3)CC2)C1=O` (stereo not drawn) is inactive: 2.75%; for `COc1ccc(Cl)cc1NC(=O)Cn1c(NCCO)nc2ccccc21` it is inactive: 7.38%; for `CCCC1OP(=O)(Nc2ccccc2)OCC1CC` (stereo not drawn) it is inactive: 10.5%. In the case of `O=S(=O)(Nc1ccc2c(c1)nc1n2CCN(Cc2ccccc2)C1)c1ccccc1`, the inhibition was inactive: 14.4%. In the case of `O=S(=O)(c1ccc(Cl)c(Cl)c1)N1CCc2nc3ccccc3n2CC1` it was inactive: 6.06%; in that of `Cn1c(=O)c2c(ncn2CC(=O)N/N=C/C=C/c2ccccc2)n(C)c1=O`, inactive: 5.4%. In the case of `CC1CC(C)CN(Cc2nc3c(c(=O)n(C)c(=O)n3C)n2CCN2CCOCC2)C1` (stereo not drawn) it was inactive: -8.04%; in that of `COc1ccc(CN(C)C(=O)Cn2cnc3c(SC)nc(N)nc32)cc1OC`, inactive: 13.1%. In the case of `O=S(=O)(c1ccc(Br)cc1)N1CCn2c(nc3ccccc32)C1` it was inactive: -0.08%; in that of `CCN(c1ccccc1)S(=O)(=O)c1ccc(OC)c(NC(=O)Cn2cnc3c2c(=O)n(C)c(=O)n3C)c1`, inactive: 8.3%.

Consider `COc1cccc(C(=O)N2CCn3c2nc2ccccc23)c1`, for which the inhibition is inactive: 15.9%.

With `COc1ccc(Cc2nc3ccccc3n2CC(=O)N/N=C/c2ccc(C)cc2O)cc1OC`, the inhibition is inactive: -4.58%. In the case of `CN1CN(c2ccccc2)C2(CCN(CCCSc3ccccc3NC(=O)/C=C/c3ccccc3)CC2)C1=O` it was inactive: -80%; in that of `COc1cccc(NC(=O)Cn2c(SCC(=O)N3CCOCC3)nc3ccccc32)c1`, inactive: 6.16%. In the case of `O=C(/C=C/c1ccccc1)OC1CN2CCC1CC2` (stereo not drawn) it was inactive: 14.4%; in that of `CC1CCC(C(C)C)C(OP(=O)(Nc2ccccn2)c2ccccc2)C1` (stereo not drawn), inactive: -33.3%; in that of `CCN(CC)C(=O)Cn1c(=O)n(C)c2ccccc21`, inactive: -2.95%. `Cc1ccc(C(=O)OC2CN3CCC2CC3)cc1` (stereo not drawn): the inhibition is inactive: 8.83%. In the case of `CCN(CC)c1ccc(NC(=O)Cn2c(C(C)NC(=O)c3ccccc3)nc3ccccc32)cc1` (stereo not drawn), the inhibition was inactive: -0.32%. In the case of `Cc1cccc(Cn2c(=O)c3c(nc4n3CCN4Cc3ccco3)n(C)c2=O)c1` it was inactive: 14.4%; in that of `Cc1nn(-c2ccccc2)c2c1P(=O)(N1CCOCC1)N(C)C(c1ccccc1)=N2` (stereo not drawn), inactive: 4.97%; in that of `CCCC(=O)Nc1ccc(C(=O)/C=C/c2ccc(SC)cc2)cc1`, inactive: -5.67%. The figure for `CCn1cc(Cl)c(C(=O)Nc2nc3ccccc3n2CCN2CCCCC2)n1` is inactive: 3.65%; for `c1ccc2c(c1)nc(-c1ccncc1)n2CCNc1nc(CN2CCCCC2)cs1` it is inactive: 21%; for `Cc1cccc(C)c1NC(=O)N1CCC(n2c(=O)[nH]c3ccccc32)CC1` it is inactive: 10.4%. The figure for `O=C(Cn1c(C(F)(F)F)nc2ccccc21)NCCN1CCCC1` is inactive: 1.32%; for `O=C(Cn1cnc2ccccc21)Nc1cc(C(F)(F)F)ccc1N1CCOCC1` it is inactive: 0.19%; for `O=C(Cn1c(=O)n(CC2CS2)c2ccccc21)N1CCCCCC1` (stereo not drawn) it is inactive: -4.13%. As for `CC(C)(C)NC(=O)Cn1c(SCC(=O)NCc2cccs2)nc2ccccc21`, the inhibition is inactive: 18.7%. `O=C(Cn1c(SCC(=O)N2CCc3ccccc32)nc2ccccc21)NC1CCCC1`: the inhibition is inactive: 3.99%.
